# Yeast mating assay 2: variants of the scFv Ab-95

Antigen: PDVDLGDISGINAS, a 14-residue peptide of the SARS-CoV-2 spike HR2 region.

Parent: Ab-95, a human scFv built as VH, a (GGGGS)3 linker, VL. Only the CDRs of the light chain vary.
VH: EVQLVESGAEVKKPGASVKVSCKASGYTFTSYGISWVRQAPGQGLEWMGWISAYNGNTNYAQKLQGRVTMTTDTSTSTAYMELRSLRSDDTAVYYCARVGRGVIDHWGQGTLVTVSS
VL: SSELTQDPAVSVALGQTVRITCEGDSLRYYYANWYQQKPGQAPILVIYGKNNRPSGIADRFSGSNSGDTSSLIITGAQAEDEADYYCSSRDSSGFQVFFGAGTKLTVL

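Phage display of a naive human antibody library on the peptide gave the parent. Variants in AAYL52 differ from the parent at up to three CDR positions; double and triple changes were sampled at random. The assay is AlphaSeq: two haploid yeast populations carry antibody and antigen on their surface. Binding brings cells together so that they mate, and sequencing counts the barcode pairs among the diploids. Each replicate has its own calibration line, from reference interactions of the BCL2 family. The assay was run in three technical replicates.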

Substitutions are numbered in sequence along the VL above, starting at 1 (not Kabat).
Affinities are written as log10 Kd with Kd in nM; a lower number is a better binder.
A pair that was not seen in that replicate is written "ND"; this usually means weak binding, but a binder can also be missed.

| changes | log10 Kd, replicates | signal with controls |
|---|---|---|
| K50L/S92L/F95Y | 2.91 / 3.02 / 2.51 | 3 of 9 (4.55) |
| S26K/V97G | ND / 6.03 / ND | 2 of 9 (5.12) |
| G24V/L27A/G94Q | 3.68 / 3.78 / 4.42 | 2 of 9 (4.49) |
| E23V/S26C/S93M | 5.41 / ND / ND | 1 of 9 (4.21) |
| E23D/G94A/F95I | 4.01 / 2.30 / 2.28 | 1 of 9 (3.77) |
| A32G/P54R/S55L | ND / 4.06 / ND | 1 of 9 (3.65) |
| S26R/Y29N | 3.72 / 4.21 / 3.00 | 3 of 9 (3.89) |
| Y29R/N51D/S92W | 3.40 / ND / 2.53 | 2 of 9 (3.94) |
| S26M/F98T | 4.55 / 3.96 / 3.95 | 5 of 9 (3.76) |
| E23L/G24L/N33A | ND / 4.30 / 2.71 | 4 of 9 (4.21) |
| Y30Q/R90V/S92E | ND / ND / ND | 3 of 9 (4.04) |
| G24A/L27I/S93L | ND / ND / ND | 2 of 9 (4.79) |
| E23M/D25S/F95Q | 2.58 / 2.41 / 2.52 | 4 of 9 (3.92) |
| Y29F/G49K/Q96F | ND / 5.63 / ND | 2 of 9 (2.66) |
| S26C/N51W/S93N | ND / 4.99 / ND | 5 of 9 (4.00) |
| R53K/S88H/G94C | 2.99 / 4.56 / ND | 0 of 9 |
| L27S/R90F/F98R | 3.48 / ND / ND | 4 of 9 (4.51) |
| R28S/Y29V/S55L | 3.28 / 3.77 / 3.00 | 1 of 9 (4.25) |
| G24N/K50D/D91G | 4.44 / ND / 3.55 | 1 of 9 (4.10) |
| Y29D/R90I/F98H | ND / ND / ND | 1 of 9 (2.96) |
| E23V | 2.56 / 2.30 / 1.82 | 4 of 9 (3.36) |
| N52D/P54K/S55K | 2.90 / 2.57 / 2.58 | 3 of 9 (3.69) |
| R53G/V97M/F98A | ND / ND / ND | 3 of 9 (3.30) |
| Y29H/R90D/F95P | 2.57 / 2.47 / 3.13 | 2 of 9 (3.26) |
| L27W/G49T/R53W | 3.60 / ND / ND | 4 of 9 (3.68) |
| Y29I/K50D/S89Y | 3.70 / ND / ND | 3 of 9 (3.86) |
| Y29R/N52L/D91G | 2.58 / 2.30 / 3.19 | 4 of 9 (3.96) |
| S26E/N51C/F95V | ND / 3.48 / ND | 2 of 9 (4.17) |
| S26A/Y30F/V97N | ND / ND / 3.91 | 2 of 9 (3.47) |
| R28T/A32M/V97H | ND / ND / ND | 1 of 9 (4.28) |
| R53M/V97Q | ND / ND / ND | 0 of 9 |
| R90G | 3.11 / 2.91 / 3.58 | 2 of 9 (3.19) |
| A32Q/R53H | 3.38 / ND / ND | 6 of 9 (4.49) |
| R28A/Y30T/V97P | 1.99 / 2.02 / 1.89 | 2 of 9 (3.68) |
| E23K/D91K | ND / 4.22 / ND | 1 of 9 (3.41) |
| N33Y/S89D | ND / 5.07 / ND | 4 of 9 (4.53) |
| P54Y | 3.06 / 3.53 / 2.65 | 5 of 9 (3.62) |
| A32I/P54M/F95Y | 2.90 / 3.18 / 3.08 | 2 of 9 (3.73) |

For reference, the parent read 2.31 as the reference entry and 2.25 as a member of this library.
Nonspecific signal, from three strains lacking the peptide, appeared in 28% of pairings of library AAYL52, centred on 3.91 (5% of these signals below 2.90); values are not corrected for it. Also given: how often the same scFv was detected with the empty control strains, with their mean in brackets.

From the AlphaSeq antibody data of Engelhart et al. 2022 (doi:10.1038/s41597-022-01779-4), copy in the FLAb collection.